Target: human GLP-1R (Homo sapiens, UniProt P43220)
Experiment: GLP-1R cAMP assay (Example B1a, HTRF, 30 min at room temperature)
Conditions: cAMP accumulation in HEK293 expressing human GLP-1R, no BETP, 30 min room temperature (Method B1a, compounds ID 1-609), Table 1

Protein sequences, listed by entry. Tags and fused reporters are not part of them. Residues count along the entry.
UniProt P43220, 24-463 limits assumed: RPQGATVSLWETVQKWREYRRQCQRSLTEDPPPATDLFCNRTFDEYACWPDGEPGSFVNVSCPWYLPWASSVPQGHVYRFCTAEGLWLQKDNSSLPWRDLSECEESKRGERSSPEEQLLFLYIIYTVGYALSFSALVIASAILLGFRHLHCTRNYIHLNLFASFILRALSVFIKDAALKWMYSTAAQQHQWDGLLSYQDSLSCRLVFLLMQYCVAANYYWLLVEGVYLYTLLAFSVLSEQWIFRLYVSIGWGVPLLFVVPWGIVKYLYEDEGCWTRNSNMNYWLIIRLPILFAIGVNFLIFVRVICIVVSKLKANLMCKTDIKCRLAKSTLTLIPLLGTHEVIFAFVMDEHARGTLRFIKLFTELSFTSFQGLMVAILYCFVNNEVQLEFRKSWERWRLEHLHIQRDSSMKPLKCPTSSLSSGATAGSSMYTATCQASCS

Row | SMILES | EC50
1 | Cc1cc(-n2nc3c(c2-n2ccn(-c4ccc5c(ncn5C)c4F)c2=O)[C@@H]2CC[C@H](C3)N2C(=O)c2cc3cc([C@H]4CCOC(C)(C)C4)ccc3n2C2(c3noc(=O)[nH]3)CC2)cc(C)c1F | > 10 µM
2 | Cc1cc(-n2nc3c(c2-n2ccn(-c4ccc5c(cnn5C)c4F)c2=O)[C@@H]2CC[C@H](C3)N2C(=O)c2cc3oc(C4CCOC(C)(C)C4)nc3n2[C@@]2(c3noc(=O)[nH]3)C[C@@H]2C)cc(C)c1F (stereo partly drawn) | > 10 µM
3 | Cc1cc(-n2nc3c(c2-n2ccn(-c4ccc5c(cnn5CCN5CCOCC5)c4F)c2=O)[C@@H]2CC[C@H](C3)N2C(=O)c2cc3cc([C@H]4CCOC(C)(C)C4)ccc3n2[C@@]2(c3noc(=O)[nH]3)C[C@@H]2C)cc(C)c1F | 2.04 µM

Source: patent US12617783B2, “Heterocyclic GLP-1R agonists” (BIOMEA FUSION, INC., priority 2024, dated 2026)
